The numbers were not newly measured in US20110112037A1, “CRYSTAL STRUCTURE” (Heptares Therapeutics Limited BioPark, priority 2008, published 2011), which cites them from elsewhere.

By UniProt entry, the sequences of proteins in these tests, tags left out.
UniProt P07700, whole entry R68S/M90V/Y227A/A282L/F327A/F338M, looked up: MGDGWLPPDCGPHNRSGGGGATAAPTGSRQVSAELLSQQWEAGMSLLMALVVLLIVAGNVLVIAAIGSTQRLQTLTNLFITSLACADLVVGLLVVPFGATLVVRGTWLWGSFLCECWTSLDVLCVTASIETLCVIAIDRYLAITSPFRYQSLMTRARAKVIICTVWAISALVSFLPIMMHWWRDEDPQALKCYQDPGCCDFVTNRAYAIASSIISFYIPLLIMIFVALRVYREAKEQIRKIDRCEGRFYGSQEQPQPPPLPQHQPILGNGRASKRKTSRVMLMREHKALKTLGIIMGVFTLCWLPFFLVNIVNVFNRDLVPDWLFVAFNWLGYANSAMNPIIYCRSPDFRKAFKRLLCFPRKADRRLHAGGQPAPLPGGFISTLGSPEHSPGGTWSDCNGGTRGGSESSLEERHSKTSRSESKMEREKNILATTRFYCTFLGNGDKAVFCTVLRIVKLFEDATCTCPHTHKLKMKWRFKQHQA

For the series, the target named is β1-m23 (Meleagris gallopavo, UniProt P07700, A282L/F327A/F338M/M90V/R68S/Y227A). The note with it: β1-m23 versus wild-type receptor; cited from earlier work.

As for `NC[C@H](O)c1ccc(O)c(O)c1`, the “factor by which agonist bound more weakly to β1-m23 than to wild-type receptor” value was 2470.
